Results from ChEMBL document CHEMBL1140323, “Biaryl ureas as potent and orally efficacious melanin concentrating hormone receptor 1 antagonists for the treatment of obesity” (J Med Chem, 2005).

Sequences of proteins named here, by UniProt entry; tags and fusion partners are left off.
UniProt Q99705, whole entry: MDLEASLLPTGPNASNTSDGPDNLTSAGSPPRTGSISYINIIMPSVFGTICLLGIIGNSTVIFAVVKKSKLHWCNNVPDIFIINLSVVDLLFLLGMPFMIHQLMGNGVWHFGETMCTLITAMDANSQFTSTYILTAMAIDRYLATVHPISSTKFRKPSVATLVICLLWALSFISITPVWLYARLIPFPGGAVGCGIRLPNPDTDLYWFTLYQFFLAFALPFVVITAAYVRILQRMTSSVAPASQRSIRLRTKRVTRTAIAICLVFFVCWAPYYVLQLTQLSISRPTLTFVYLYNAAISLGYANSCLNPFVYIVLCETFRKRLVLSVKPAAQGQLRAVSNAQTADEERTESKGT

Target: Melanin-concentrating hormone receptor 1 (Homo sapiens, UniProt Q99705)
Test: Inhibition of calcium influx into cells expressing hMCH-R1 in FLIPR assay
Format: functional

Row | Structure (SMILES) | Kb
1 | N#Cc1cccc(-c2ccc(N(C(=O)Nc3ccc(F)c(Cl)c3)C3CCN(C4CCCC4)CC3)cc2)c1 | 1.3 nM
2 | N#Cc1cccc(-c2ccc(N(C(=O)Nc3cc(Cl)cc(Cl)c3)C3CCN(C4CCCC4)CC3)cc2)c1 | 5.5 nM
